This is an account of results in patent US20070185193A1, “Huvastatin and its preparation and formulation comprising the huvastatin” (HUAIBEI HUIKE PHARMACEUTICAL, CO. LTD., priority 2003, published 2007).

Broadly, the Ki is the dissociation constant of the complex between target and ligand, obtained from inhibition or displacement. Read a low Ki as a stronger hold on the target.

The target of the assay is T1, HMG-CoA reductase (Homo sapiens, UniProt P04035).
T1 sequence (P04035 1-888): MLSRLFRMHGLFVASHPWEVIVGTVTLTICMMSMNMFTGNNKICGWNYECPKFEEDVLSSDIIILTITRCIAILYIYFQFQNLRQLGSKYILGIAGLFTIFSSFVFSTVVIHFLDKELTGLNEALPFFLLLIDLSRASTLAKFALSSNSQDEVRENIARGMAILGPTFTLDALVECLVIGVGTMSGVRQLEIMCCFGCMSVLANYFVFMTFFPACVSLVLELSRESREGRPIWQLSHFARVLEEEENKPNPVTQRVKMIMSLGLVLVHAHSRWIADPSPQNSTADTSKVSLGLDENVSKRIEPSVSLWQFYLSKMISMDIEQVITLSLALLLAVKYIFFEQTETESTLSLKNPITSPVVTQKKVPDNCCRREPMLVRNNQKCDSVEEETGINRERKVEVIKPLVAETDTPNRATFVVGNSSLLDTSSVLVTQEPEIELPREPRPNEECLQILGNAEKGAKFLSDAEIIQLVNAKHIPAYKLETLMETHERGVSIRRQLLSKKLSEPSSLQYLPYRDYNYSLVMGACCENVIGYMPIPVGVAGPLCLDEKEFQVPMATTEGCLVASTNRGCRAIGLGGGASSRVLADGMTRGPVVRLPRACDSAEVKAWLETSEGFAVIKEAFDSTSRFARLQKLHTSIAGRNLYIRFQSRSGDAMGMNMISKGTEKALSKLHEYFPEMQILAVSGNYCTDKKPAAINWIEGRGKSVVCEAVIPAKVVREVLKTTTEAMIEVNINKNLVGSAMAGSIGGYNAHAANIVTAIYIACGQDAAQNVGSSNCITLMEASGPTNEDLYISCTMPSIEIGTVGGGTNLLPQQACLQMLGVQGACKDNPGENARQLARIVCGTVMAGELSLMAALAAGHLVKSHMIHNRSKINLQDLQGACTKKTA
As to the kind of experiment: Inhibiting constant Ki of statins with HMG-CoA (reductase), conventional methods. The assay is classed as biochemical.

For the compound `CC[C@H](C)C(=O)O[C@H]1C[C@H](O)C=C2C=C[C@H](C)[C@H](CC[C@@H](O)C[C@@H](O)CC(=O)O)[C@H]21` [Pravastatin, pravastatin], the affinity corresponds to a Ki of 43 nM.

With `CC(C)c1c(C(=O)Nc2ccccc2)c(-c2ccccc2)c(-c2ccc(F)cc2)n1CC[C@@H](O)C[C@@H](O)CC(=O)O` [Atorvastatin, atorvastatin], the Ki worked out at 8.2 nM.
